## Reported intrinsic clearance values for industrial, environmental and drug-like chemicals

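The OPERA project collected these measurements from public sources as training and test data for property models. One number stands for a compound and property, with no spread given. Method, purity and exact conditions of the single measurements are not given. Where a salt, mixture or single isomer is drawn, the source does not say that exactly this form was tested. Unmarked limits or estimates from the upstream databases cannot be ruled out.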

Clint is human hepatic intrinsic clearance in µL/min per million cells; 0 means that no clearance was seen.
"n/a" marks a cell with nothing listed here.

structure (SMILES)	name	Clint (µL/min/10^6 cells)
c1cc2c3c(cccc3c1)CC2	Acenaphthene	4.846
CCNS(=O)(=O)C(F)(F)C(F)(F)C(F)(F)C(F)(F)C(F)(F)C(F)(F)C(F)(F)C(F)(F)F	Sulfluramid	3.48
COP(=S)(OC)Oc1nc(Cl)c(Cl)cc1Cl	Chlorpyrifos-methyl	24.1
Cc1cc(Cc2ccc(N)c(C)c2)ccc1N	4,4'-methylene bis(2-methylaniline)	3.984
CCOP(=S)(OCC)Oc1nc(Cl)c(Cl)cc1Cl	Chlorpyrifos	2.6
O=C(O)C(F)(F)C(F)(F)C(F)(F)C(F)(F)C(F)(F)F	Perfluorohexanoic acid	0
O=C(O)COc1ccc(Cl)cc1Cl	2,4-d	0
CC1(C)C(C=C(Cl)Cl)C1C(=O)OCc1cccc(Oc2ccccc2)c1 (stereo unspecified)	Permethrin	68.4
C=C(Cl)Cl	1,1-dichloroethylene	24.46
CC(c1ccc(O)cc1)(c1ccc(O)cc1)c1ccc(O)cc1	1,1,1-tris(p-hydroxyphenyl)ethane	30.8
CCOP(=O)(SC(C)CC)N1CCSC1=O (stereo unspecified)	Fosthiazate	0
CCC(C)(C)c1ccc(O)cc1	4-(2-methylbutan-2-yl)phenol	20.96
C[Si](Cn1cncn1)(c1ccc(F)cc1)c1ccc(F)cc1	Flusilazole	6.96
Oc1ccc(C2(c3ccc(O)cc3)c3ccccc3-c3ccccc32)cc1	4,4'-(9h-fluorene-9,9-diyl)diphenol	22.4
CCSC(=O)N(CC)C1CCCCC1	Cycloate	34.48
Cc1ccc([N+](=O)[O-])cc1C	1,2-dimethyl-4-nitrobenzene	454
c1ccc2c(c1)oc1ccccc12	Dibenzofuran	8.3
Nc1ccc(Cl)cc1	4-chloroanulline	0
FC(F)(Cl)Cl	Dichlorodifluoromethane	0.05
CC(C)N(C(=O)CCl)c1ccccc1	Propachlor	69.7
CCC(C)(c1ccc(O)cc1)c1ccc(O)cc1	Bisphenol b	35.66
CN(C)c1nc(=O)n(C2CCCCC2)c(=O)n1C	Hexazinone	6.36
COP(=S)(OC)Oc1ccc([N+](=O)[O-])cc1	Methyl parathion	14.19
CCCCN(CC)C(=O)SCCC	Pebulate	159
Oc1ccc(Cl)cc1Cc1cc(Cl)ccc1O	Dichlorophen	13.2
CCOc1cc(C(C)(C)C)ccc1C1COC(c2c(F)cccc2F)=N1 (stereo unspecified)	Etoxazole	18.48
Cc1ccc(-c2c(Cl)nc(C#N)n2S(=O)(=O)N(C)C)cc1	Cyazofamid	10
COC(=O)c1ccccc1CS(=O)(=O)NC(=O)Nc1nc(OC)cc(OC)n1	Bensulfuron-methyl	1.65
CON(C)C(=O)Nc1ccc(Cl)c(Cl)c1	Linuron	33.05
Cc1ccc([N+](=O)[O-])cc1	4-nitrotoluene	19.32
CNC(=O)ON=C(C)SC	Methomyl	2.05
O=Nc1ccc(Nc2ccccc2)cc1	4-nitrosodiphenylamine	839
CN1COCN(Cc2cnc(Cl)s2)C1=N[N+](=O)[O-]	Thiamethoxam	0.61
CCCCN(CCCC)N=O	N-nitrosodi-n-butylamine	11.12
O=C(O)c1c(Cl)ccc2cc(Cl)cnc12	n/a	0
CC(C)OC(=O)Nc1cccc(Cl)c1	Chlorpropham	78.1
CCOc1ccc(N)cc1	4-ethoxyaniline	13.8
CCCC(C)C1(CC)C(=O)N=C(O)NC1=O (stereo unspecified)	Pentobarbital	0.723
Clc1ccc(C(c2ccc(Cl)cc2)C(Cl)Cl)cc1	p,p'-ddd	0
CCCCCCOC(=O)c1ccccc1C(=O)OCCCCCC	Dihexyl phthalate	27.7
CSc1nc(NC(C)C)nc(NC(C)C)n1	Prometryn	35.78
CCOP(=O)(NC(C)C)Oc1ccc(SC)c(C)c1 (stereo unspecified)	Fenamiphos	62.11
CCCCNC(=O)n1c(NC(=O)OC)nc2ccccc21	Benomyl	26
CCCCc1ccc(O)cc1	4-butylphenol	127
Cc1ccn2nc(S(=O)(=O)Nc3c(F)cccc3F)nc2n1	Flumetsulam	7.52
CC(Cl)(Cl)Cl	1,1,1-trichloroethane	0.0238
CC(C)(c1ccccc1)c1ccc(O)c(C(C)(C)c2ccccc2)c1	2,4-bis(1-methyl-1-phenylethyl)phenol	128

Excerpt, the opening 7 entries:

structure (SMILES)	name	Clint (µL/min/10^6 cells)
c1cc2c3c(cccc3c1)CC2	Acenaphthene	4.846
CCNS(=O)(=O)C(F)(F)C(F)(F)C(F)(F)C(F)(F)C(F)(F)C(F)(F)C(F)(F)C(F)(F)F	Sulfluramid	3.48
COP(=S)(OC)Oc1nc(Cl)c(Cl)cc1Cl	Chlorpyrifos-methyl	24.1
Cc1cc(Cc2ccc(N)c(C)c2)ccc1N	4,4'-methylene bis(2-methylaniline)	3.984
CCOP(=S)(OCC)Oc1nc(Cl)c(Cl)cc1Cl	Chlorpyrifos	2.6
O=C(O)C(F)(F)C(F)(F)C(F)(F)C(F)(F)C(F)(F)F	Perfluorohexanoic acid	0
O=C(O)COc1ccc(Cl)cc1Cl	2,4-d	0

Values as listed in the OPERA 2.9 repository of K. Mansouri.